Source: patent US9291692B2, “Blood-brain barrier recovery curve assessment method and system” (NATIONAL YANG-MING UNIVERSITY, priority 2013, dated 2016)
Read-outs that look alike come from different tables or passages of the source.

System: blood-brain barrier
Conditions: right brain (sonicated target area), 1 mmol/kg i.v.

permeation constant Ktrans (contrast agent injected t=0 min after ultrasound): 0.06 min⁻¹ | permeation constant Ktrans (t=15 min after ultrasound): 0.03 min⁻¹ | permeation constant Ktrans (t=25 min after ultrasound): 0.02 min⁻¹ | permeation constant Ktrans (t=120 min after ultrasound): 0.01 min⁻¹
SMILES: CNC(=O)CN(CCN(CCN(CC(=O)[O-])CC(=O)NC)CC(=O)[O-])CC(=O)[O-].[Gd+3] [Gd-DTPA-BMA]
